Data published in US10980890B2, “Compounds comprising self-immolative group” (LegoChem Biosciences, Inc., priority 2014, dated 2021).

Columns and labels:
[1] = test system: human breast carcinoma cell line BT-474; assay: In vivo anti-tumor efficacy, BT474 breast tumor orthotopic model; set-up: species or system Balb/c-nu female mice
Procedure: Efficacy of a drug depending on single-dose or multi-dose administration was evaluated using an orthotopic model.
(§1) A human breast carcinoma cell line BT-474 was purchased from Korea Cell Line Bank and cultured using RPMI 1640 (10% FBS, 1% penicillin/streptomycin) in an incubator (37° C., 5% CO2) in which a constant temperature and humidity was maintained. As experimental animals, Balb/c-nu female mice (6 weeks old) purchased from Japan SLC were used, and after acclimation period of 1 week, 17b-estradiol pellet (1.72 mg/pellet, Innovative Research of America, Sarasota, Fla.) was subcutaneously administered. After 6 days, BT474 cell (5×10^6 cells in 100 μL) was suitably mixed with 50% PBS/50% phenol red-free Matrigel (Becton Dickinson Bioscience) and injected into the second mammary fat pad, thereby making orthotopic models. A tumor size was measured twice per a week, and a volume was calculated by ½ [length (mm)]×[width (mm)]^2. The mice were grouped so as to have an average tumor volume of 100 mm^3 in each group after 3 weeks from cell injection, and then used in the experiment. Herceptin manufactured by Roche was purchased and used, and various ADCs were produced by the present inventors, and administered once a week or one time to the experimental animals through the lateral tail vein.
It was observed that weight changes and dead animals observed during the entire experimental period were irrelevant to the administered drugs.
Animal groups were the same as those in the multi-dose administration model, a total of 4 BT474 orthotopic mice were used per group, the drugs were administered once at an initiation point in time of the experiment through the tail vein, and only observation was performed during an experiment period of 5 weeks without additional drug administration. […] It was observed that weight changes and dead animals observed during the entire experimental period were irrelevant to the administered drugs.

[2] = Body weight change / tolerability in BT474 breast cancer orthotopic model; format: in vivo, Balb/c-nu female mice; settings: 5 mg/kg QW
Procedure: as §1, with “experiment.” for “experiment. Herceptin manufactured by Roche was purchased and used, and various ADCs were produced by the present inventors, and administered once a week or one time to the experimental animals through the lateral tail vein.”

[3] = In vivo mouse PK profile (total antibody, ELISA); settings: ICR male mice, 2.5 mg/kg i.v. single dose
In vivo rat PK test = settings: female rats, 3.0 mg/kg i.v. single dose
[4] = monkey, in vivo, iv, 3 mg/kg

Question: For trastuzumab [Herceptin], which “time after single-dose administration from which tumor regrowth was observed” value ([1]; 5 mg/kg once) is on record?
Answer: 10 days

Question: What about the “Tumor growth, single-dose administration” value ([1]; 5 mg/kg once, 5 weeks observation (FIG. 12)) of the same substance?
Answer: tumor regrowth phenomenon was observed

Question: What about the “Tumor growth, multi-dose administration” value ([1]; 5 mg/kg, once a week, 4 times, tail vein (FIG. 11)) of the same substance?
Answer: tumor growth was partially inhibited

Question: And the “Tumor growth / tumor volume” value ([1]; 5 mg/kg, once a week, three times, tail vein (FIG. 10))?
Answer: tumor growth was partially inhibited

Question: What about the “Body Weight Change” value ([2]; Day 4) of the same substance?
Answer: 22.1

Question: And the “Body Weight Change” value ([2]; Day 7)?
Answer: 22.1

Question: What about the “Body Weight Change” value ([2]; Day 10) of the same substance?
Answer: 21.9

Question: And the “Body Weight Change” value ([2]; Day 14)?
Answer: 21.1

Question: What about the “Body Weight Change” value ([2]; Day 21) of the same substance?
Answer: 22.5

Question: What about the C0 [3] of the same substance?
Answer: 39.20 µg/mL

Question: And the “Alpha HL” value (In vivo rat PK test)?
Answer: 2.16 ± 0.50 days

Question: What about the V1 (In vivo rat PK test) of the same substance?
Answer: 0.03672 ± 0.00108 L/kg

Question: What about the V1 [4] of the same substance?
Answer: 0.03608 ± 0.00062 L/kg

Like-named read-outs stand apart in the source and are kept apart here.
